# Ab-95 light chain CDR variants: yeast mating affinities

The measurements come from Engelhart et al. 2022 (doi:10.1038/s41597-022-01779-4) through the FLAb antibody collection.

The target is the same throughout: PDVDLGDISGINAS, from the HR2 region of SARS-CoV-2 spike.

Ab-95 is the parent antibody, in scFv form: VH, then a 15-residue (Gly4Ser)3 linker, then VL. The heavy chain is unchanged in all variants.
VH: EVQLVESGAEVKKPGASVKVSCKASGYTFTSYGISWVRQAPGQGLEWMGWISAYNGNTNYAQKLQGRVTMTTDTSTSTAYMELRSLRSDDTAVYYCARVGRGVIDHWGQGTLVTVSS
VL: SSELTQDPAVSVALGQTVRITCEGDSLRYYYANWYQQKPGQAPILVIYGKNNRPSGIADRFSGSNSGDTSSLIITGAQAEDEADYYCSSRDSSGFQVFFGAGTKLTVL

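AAYL52 was designed without a model: most single CDR substitutions and a random sample of double and triple ones. The assay is AlphaSeq: two haploid yeast populations carry antibody and antigen on their surface. Pairs that bind mate more often; barcode pairs of the diploids are counted by sequencing. Scores were corrected for input abundance and mapped to Kd with protein pairs of known affinity run in the same pool. Each pool was mated in three replicate cultures.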

Variants are written as CDR1, CDR2 and CDR3 of the light chain (limits as in the source). Parent: EGDSLRYYYAN, GKNNRPS, SSRDSSGFQVF.
Every variant below is changed at D91 of the VL (sequential numbering).
The Kd shown is the geometric mean over detected replicates; a lower Kd is a better binder.
Where no diploid with the target was found in any replicate, the entry reads "nd": below detection, most likely a poor binder, though not proof of it.

- EGDILRYYYGN | GKNNRPS | SSRLSSGFQVF = 4.7 µM (2 of 3 replicates)
- EGDSLRYEYAN | GKNNRPS | SSRKSSGFQVF = 5.9 µM (3 of 3 replicates)
- EGDSLRYYYAN | GKNNRPS | SSRRSSGFHVF = 280 nM (3 of 3 replicates)
- EGDSLAYYYAN | GPNNRPS | SSRYSSGFQVF = 1.3 µM (3 of 3 replicates)
- EGDSLRYYYAN | GKNNRPS | SSRWSSGVQVD = nd (0 of 3 replicates)
- EGDSLRYYYAI | GKNNRPS | SSRNSSGFQVF = nd (0 of 3 replicates)
- EGDSLRYYYAN | GKNNRPN | SSRQSSGFQSF = nd (0 of 3 replicates)
- EGHSLRYYYAN | GKNNRPS | SSRWSSGFTVF = 9.3 µM (1 of 3 replicates)
- EGDSLRFYYAN | GKNNRPS | SSRNSSGFSVF = 640 nM (1 of 3 replicates)
- EGDSLRYYYAN | GKNQRPS | SSRASSGFQQF = 370 nM (3 of 3 replicates)
- EGDELRTYYAN | GKNNRPS | SSRCSSGFQVF = 2.9 µM (3 of 3 replicates)
- EGDSLQYCYAN | GKNNRPS | SSRNSSGFQVF = nd (0 of 3 replicates)
- LGDSLRYYYAN | GKNNRPS | SSCMSSGFQVF = 28 µM (2 of 3 replicates)
- EGDILRYYYAN | GKNNRPS | SSRGSSGFQVF = 260 nM (3 of 3 replicates)
- EGDSLRYYYAN | GKNNRPS | SSRRNSPFQVF = nd (0 of 3 replicates)
- EGDSLRYSYAN | GKNNRPS | QSRSSSGFQVF = 31 nM (3 of 3 replicates)
- EGDSLRYYYNN | GCNNRPS | SSRVSSGFQVF = nd (0 of 3 replicates)
- EGDFLRYYYFN | GKNNRPS | SSRASSGFQVF = 5.2 µM (2 of 3 replicates)
- EGDSLRYYYAN | GKNNRPS | SGRFHSGFQVF = 690 nM (3 of 3 replicates)
- EGDSLRYYYAN | GKCNRPS | SSRCSSGFQVF = nd (0 of 3 replicates)
- EGDSLRYYMAN | GKNNRPS | SSRVSSAFQVF = 9.4 µM (3 of 3 replicates)
- EWDSLRYYYAN | SKNNRPS | SSRASSGFQVF = 8.1 µM (1 of 3 replicates)
- PGDSLRYYYAN | GKNNRPS | SSRHSSGFQVC = 270 µM (1 of 3 replicates)
- EGDSLRYYYAR | GKNDRPS | SSRLSSGFQVF = nd (0 of 3 replicates)
- GGDSLRYYYAW | GKNNRPS | SSRPSSGFQVF = 520 µM (1 of 3 replicates)
- EGDSLRYYYAI | GKNNRPS | SSRHSSGFQVF = 2.0 µM (1 of 3 replicates)
- EGDSLRYYYAN | GKNNMPS | SSRGSSGFGVF = 5.7 µM (3 of 3 replicates)
- EGDSLRKYYAN | GANNRPS | SSRLSSGFQVF = 430 nM (3 of 3 replicates)
- EGDSLGYYYAN | GKNNPPS | SSRYSSGFQVF = 1.9 µM (2 of 3 replicates)
- EGDSLRYYQRN | GKNNRPS | SSRGSSGFQVF = 3.7 µM (3 of 3 replicates)
- EGDSLRYYSAN | GKNNRPS | SSRFSSGFQAF = 36 nM (3 of 3 replicates)
- EGMSLRYYYAN | GKNNRPS | SSRLSSCFQVF = 8.7 µM (2 of 3 replicates)
- EGDSLRYYYAN | GKNNRPN | SSRGSSFFQVF = 1.0 µM (2 of 3 replicates)
- EGDSLRYYYAN | GKNNRPS | SSRASSGFNVF = 870 nM (3 of 3 replicates)
- EGDSLRYYHAN | GKNNRPS | SLRHSSGFQVF = 2.4 µM (1 of 3 replicates)
- EGDSLRYAYAN | GKNNRPD | SSRISSGFQVF = 8.8 nM (3 of 3 replicates)
- EGDSLRYYYAN | HKNHRPS | SSRESSGFQVF = 34 µM (1 of 3 replicates)
- EGDSLRYYYAN | GKYNRPS | SSRGSSGFQVF = 3.2 µM (2 of 3 replicates)
- NGDSLRYKYAN | GKNNRPS | SSRASSGFQVF = 35 nM (3 of 3 replicates)
- EGDSLRYYYAN | GKNNRPC | SSRFSSGFQVF = 180 µM (2 of 3 replicates)
- ENDSLRYYYAN | GKNTRPS | SSRTSSGFQVF = nd (0 of 3 replicates)
- EGDSLRYYYAN | DKNNRPS | SSRMSSGFQVF = 38 µM (1 of 3 replicates)
- EGDALRYYYAN | GKQNRPS | SSRFSSGFQVF = 1.2 µM (3 of 3 replicates)
- EGDSLRYYYIN | GKNNRPS | SSRRSSGFQVF = 46 µM (2 of 3 replicates)

The first 5 variants above that were never detected:

CDR-L1	CDR-L2	CDR-L3	Kd (apparent)	detected
EGDSLRYYYAN	GKNNRPS	SSRWSSGVQVD	nd	0/3
EGDSLRYYYAI	GKNNRPS	SSRNSSGFQVF	nd	0/3
EGDSLRYYYAN	GKNNRPN	SSRQSSGFQSF	nd	0/3
EGDSLQYCYAN	GKNNRPS	SSRNSSGFQVF	nd	0/3
EGDSLRYYYAN	GKNNRPS	SSRRNSPFQVF	nd	0/3

As a blank, each scFv also met three strains without target: over library AAYL52, 28% of these pairings were detected, typically at 8.2 µM and seldom below 800 nM.